Measurements reported in patent US8211714B2, “Characterization of molecules” (Analiza, Inc., priority 2001, dated 2012).

Target: T1, bovine β-lactoglobulin (Bos taurus, UniProt P02754)
T1 sequence (P02754 17-178): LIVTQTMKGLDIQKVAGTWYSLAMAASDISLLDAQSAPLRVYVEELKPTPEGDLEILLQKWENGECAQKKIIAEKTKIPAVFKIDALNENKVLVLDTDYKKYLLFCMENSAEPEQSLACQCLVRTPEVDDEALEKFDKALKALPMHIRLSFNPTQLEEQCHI
Method: β-Lactoglobulin from bovine milk, retinol, nitrophenyl phosphate and bromoethanol were purchased from Sigma Chemical Company (St. Louis, Mo., USA) and used without further purification. A stock solution of β-lactoglobulin in water was prepared at a concentration of 10.0 mg/ml. Nitrophenyl phosphate, retinol, and bromoethanol were dissolved in the protein stock solutions in the molecular ratios as indicated in Table 1. These protein/binding partner solutions were subjected to partitioning in a series of different aqueous two-phase systems, also as indicated below.
The aqueous two-phase system contained 13.75 wt. % PEG-600 (molecular weight of about 600) and 21.00 wt. % sodium/potassium phosphate buffer (pH 6.8). Each system was prepared by mixing the appropriate amounts of stock polymer and buffer solutions dispensed by liquid handling workstation Hamilton ML-2200 into a 1.2 mL microtube. A total volume of 800 μL was dispensed to the microtube. A varied amount (40, 80, 120, 160, and 200 μL) of the β-lactoglobulin solution or that of a mixture of a given ratio and the corresponding amount (160, 120, 80, 40, and 0.0 μl) of water were added to a system. The ratio between the volumes of the two phases of each system of a final volume of 1.00 mL was as 1:1. The system was shaken vigorously and then centrifuged for 30 min. at about 4000 rpm to speed resolution of the two phases. Tubes were then taken from the centrifuge, aliquots of a given volume (100 μl for direct spectrophotometric analysis and 150 μl for fluorescence analysis) from the top and the bottom phases were withdrawn in duplicate. Each aliquot was diluted, mixed with appropriate reagents, and used for analyzed as described below.
The other aqueous two-phase system contained 8.88 wt. % Dextran-64 (molecular weight of about 64,000), 12.86 wt. % Ficoll-400 (molecular weight of about 400,000) and 0.01 M sodium phosphate buffer (pH 8.6). Each system was prepared by mixing the appropriate amounts of stock polymer and buffer solutions dispensed by liquid handling workstation Hamilton ML-2200 into a microtube of a total volume of 1.2 mL up to a total volume of a system of 820 μL. A varied amount (40, 80, 120, and 160 μl) of the β-lactoglobulin solution or that of a mixture of a given ratio and the corresponding amount (140, 100, 60, and 20 μl) of water were added to each system. […] Tubes were taken out of the centrifuge, and aliquots of a given volume (100 μl for direct spectrophotometric analysis and 150 μl for fluorescence analysis) from the top and the bottom phases were withdrawn in duplicate and each diluted and mixed with appropriate reagents as indicated below and used for further analysis performed as described below. […]

bovine β-lactoglobulin: β-Lactoglobulin from bovine milk (Sigma); protein alone, row 'None' of Table 1
Partition coefficient K-value, PEG/Phosphate system (pH 6.8): 1.796 ± 0.005
Partition coefficient K-value, Dex-PEG system (pH 7.4): 0.180 ± 0.008
Partition coefficient K-value, Dex-Ficoll system (pH 8.6): 0.836 ± 0.003
Partition coefficient K-value, Dex-Ficoll-NaSCN system (pH 8.6): 0.451 ± 0.002
